In US8426175B2, “Method for the production of a fermentation product from a pretreated lignocellulosic feedstock” (Iogen Energy Corporation, priority 2007, dated 2013):

Test system: bacterial contaminants isolated from a contaminated Saccharomyces pilot fermentation
Conditions: YEP-glucose media, 30° C., OD at 660 nm over several hours

Structure (SMILES)	dosage that suppresses bacterial growth (reduced rate of increase in OD660 vs the 0 ppm controls) [ppm]
[O][Cl+][O-] [chlorine dioxide]	≥ 100
OO [hydrogen peroxide]	≥ 50
